Assays:
Zebrafish larvae = Zebrafish larvae test of degradation of L and Agent Yellow (HD+L); conditions: in the presence of 0.5% sodium hypochlorite
Zebrafish embryos = assay: Zebrafish embryo survival test of HD and its CPO degradation products; conditions: embryos exposed to 0.5% sodium hypochlorite

Structure (SMILES): OCl
- effect on zebrafish larvae (Zebrafish larvae): immediately damaged, died within a few minutes, and decomposed after 5 minutes
- damage to embryos (Zebrafish embryos): immediately damaged
